# Patent US12274706B2, “Pharmaceutical composition for oral administration containing sulfasalazine and/or a sulfasalazine organic salt, production process and use” (MEDAC GESELLSCHAFT FUER KLINISCHE SPEZIALPRAEPARATE MBH, priority 2017, dated 2025)
# Marks after values point to notes of the source that are not given here.
# Experiment: Solubility of sulfasalazine, Form A meglumine salt and pharmaceutical compositions (HPLC)
# Format: physicochemical
# Conditions: for pH FaSSIF-V2: pH of the solubility sample in FaSSIF-V2
# [1] = pH of the solubility sample in water
smiles,measurement,setting,value
"CNCC(O)C(O)C(O)C(O)CO.O=C(O)c1cc(N=Nc2ccc(S(=O)(=O)Nc3ccccn3)cc2)ccc1O [Form A meglumine salt, D(−)-N-methylglucamine 2-hydroxy-5-[2-[4-[(2-pyridinylamino)sulfonyl]phenyl]diazenyl]-benzoate, crystal Form A]",pH Water,diluted in phosphate Buffer pH 6.8,6.0*
same,pH FaSSIF-V2,,6.4
same,pH Water,[1],7.5
"O=C(O)c1cc(N=Nc2ccc(S(=O)(=O)Nc3ccccn3)cc2)ccc1O [sulfasalazine, 2-hydroxy-5-[2-[4-[(2-pyridinylamino)sulfonyl]phenyl]diazenyl]-benzoic acid]",pH FaSSIF-V2,,6.3
same,pH Water,[1],5.9
